From patent US20050209278A1, “Piperidinyl- and piperazinyl-sulfonylmethyl hydroxamic acids and their use as protease inhibitors” (priority 2002, published 2005) come the findings set out here.

Sequences of proteins named here, by UniProt entry; tags and fusion partners are left off. Residues count along the entry.
UniProt P08253, 110-660 limits assumed: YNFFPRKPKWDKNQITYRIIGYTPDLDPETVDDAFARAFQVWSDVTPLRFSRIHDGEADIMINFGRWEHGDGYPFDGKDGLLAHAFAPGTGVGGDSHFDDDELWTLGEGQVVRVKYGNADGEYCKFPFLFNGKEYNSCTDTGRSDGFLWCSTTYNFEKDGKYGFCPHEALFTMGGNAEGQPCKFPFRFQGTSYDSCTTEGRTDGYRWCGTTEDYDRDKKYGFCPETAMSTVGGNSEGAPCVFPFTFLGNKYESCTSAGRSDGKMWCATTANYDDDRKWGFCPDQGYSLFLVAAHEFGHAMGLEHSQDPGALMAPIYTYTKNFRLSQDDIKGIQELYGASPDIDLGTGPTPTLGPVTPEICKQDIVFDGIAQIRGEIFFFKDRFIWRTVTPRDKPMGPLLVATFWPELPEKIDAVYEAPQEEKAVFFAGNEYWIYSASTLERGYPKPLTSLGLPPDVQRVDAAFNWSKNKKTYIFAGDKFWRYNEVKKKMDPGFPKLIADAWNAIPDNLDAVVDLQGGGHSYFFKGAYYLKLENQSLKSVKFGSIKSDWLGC
UniProt P14780, 107-707 limits assumed: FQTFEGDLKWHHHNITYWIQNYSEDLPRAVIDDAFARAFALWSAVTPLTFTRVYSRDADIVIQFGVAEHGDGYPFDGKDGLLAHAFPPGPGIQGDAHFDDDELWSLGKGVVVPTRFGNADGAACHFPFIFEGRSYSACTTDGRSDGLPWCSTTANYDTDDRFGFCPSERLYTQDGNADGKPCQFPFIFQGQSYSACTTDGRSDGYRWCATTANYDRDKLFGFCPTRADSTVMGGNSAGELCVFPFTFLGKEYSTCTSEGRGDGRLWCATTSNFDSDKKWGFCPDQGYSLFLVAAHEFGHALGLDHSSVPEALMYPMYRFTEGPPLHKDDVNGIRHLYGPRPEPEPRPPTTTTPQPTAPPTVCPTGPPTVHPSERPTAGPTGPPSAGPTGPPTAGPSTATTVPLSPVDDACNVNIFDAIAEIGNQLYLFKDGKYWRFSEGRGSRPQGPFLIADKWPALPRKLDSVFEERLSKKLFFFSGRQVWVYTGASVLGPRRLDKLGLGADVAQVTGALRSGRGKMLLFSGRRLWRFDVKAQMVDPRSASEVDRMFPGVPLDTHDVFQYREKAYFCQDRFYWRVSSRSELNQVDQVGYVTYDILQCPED
UniProt P03956, 100-469 limits assumed: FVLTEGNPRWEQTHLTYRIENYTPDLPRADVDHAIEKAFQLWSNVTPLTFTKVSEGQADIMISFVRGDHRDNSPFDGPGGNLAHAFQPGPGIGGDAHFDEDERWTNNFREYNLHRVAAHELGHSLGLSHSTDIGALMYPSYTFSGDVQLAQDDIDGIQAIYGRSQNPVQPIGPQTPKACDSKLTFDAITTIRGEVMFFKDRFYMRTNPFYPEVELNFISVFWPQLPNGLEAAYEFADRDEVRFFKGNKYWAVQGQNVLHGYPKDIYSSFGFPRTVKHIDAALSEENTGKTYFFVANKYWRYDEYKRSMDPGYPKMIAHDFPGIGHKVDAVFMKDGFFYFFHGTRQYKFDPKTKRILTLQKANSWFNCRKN

What all share (type): biochemical
Test [1] deals with T1, MMP-2 (Homo sapiens, UniProt P08253). In words: MMP-2 inhibition (in vitro Ki). To be noted: read-out: MMP-2 Ki (IC-50); Table 9; tested form: HCl.
Test [2] has as its target T2, MMP-9 (Homo sapiens, UniProt P14780). The experiment in a line: MMP-9 inhibition (in vitro Ki). To be noted: read-out: MMP-9 Ki (IC-50); Table 9; tested form: HCl.
For test [3], the target named is T3, MMP-1 (Homo sapiens, UniProt P03956). In words: MMP-1 inhibition (in vitro Ki). To be noted: read-out: MMP-1 Ki (IC-50); Table 9; tested form: HCl.
Another test deals with MMP-13 (Homo sapiens, UniProt P45452). The experiment in a line: MMP-13 inhibition (in vitro Ki). To be noted: read-out: MMP-13 Ki (IC-50); Table 9; tested form: HCl.
Test [4] addresses T4, MMP-14 (Homo sapiens, UniProt P50281). In words: MMP-14 inhibition (in vitro Ki). To be noted: read-out: MMP-14 Ki (IC-50); Table 9; tested form: HCl.
The target in test [5] is T1, MMP-2. The experiment in a line: In vitro MMP inhibition, Ki determination (fluorogenic substrate II). To be noted: read-out: MMP-2 Ki, value not in parenthesis.
Test [6] addresses T4, MMP-14. Described as above. To be noted: read-out: MMP-14 Ki, value not in parenthesis.
Test [7] concerns the target T3, MMP-1. The test is described as above. To be noted: read-out: MMP-1 Ki, value not in parenthesis.
In test [8] the target is T2, MMP-9. The description is as above. To be noted: read-out: MMP-9 Ki, value not in parenthesis.

As for `CCCCCCc1cnc(C2CCN(S(=O)(=O)C3(C(=O)NO)CCOCC3)CC2)s1`, the Ki (usually the equilibrium dissociation constant of an inhibitor or competing ligand from its target) at MMP-2 [1] was 0.00125 µM; at MMP-9 [2], 0.00693 µM; at MMP-1 [3] it was > 10 µM; at MMP-13 it was 0.00061 µM; on MMP-14 [4], 0.554 µM.

Take `Cc1sc(C2CCN(S(=O)(=O)C3(C(=O)NO)CCOCC3)CC2)nc1-c1ccccc1`: the Ki on MMP-2 [1] is 6.13 µM; on MMP-9 [2], > 10 µM; on MMP-1 [3] it was > 10 µM; at MMP-13 it was 4.14 µM; at MMP-14 [4] it was > 10 µM.

For `O=C(NO)C1(S(=O)(=O)N2CCC(c3ncc(CCCCCC(F)(F)F)s3)CC2)CCOCC1`, the Ki at MMP-2 [1] was 0.00144 µM; on MMP-9 [2] it was 0.0329 µM; on MMP-1 [3], > 10 µM; on MMP-13 it was 0.00053 µM; at MMP-14 [4], 0.577 µM.

Consider `CCCCOc1ccc(N2CCN(S(=O)(=O)C3(C(=O)NO)CCN(S(=O)(=O)c4cccs4)CC3)CC2)cc1`, for which the inhibition constant Ki on MMP-2 [5] (tested form: 2HCl) was 0.0063 µM; at MMP-14 [6] (tested form: 2HCl), 9.8 µM; on MMP-1 [7] (tested form: 2HCl) it was > 10 µM; at MMP-9 [8] (tested form: 2HCl), 0.0164 µM.

With `COCCN1CCC(C(=O)NO)(S(=O)(=O)N2CCN(c3ccc(OCC(F)(F)F)nn3)CC2)CC1`, the Ki is 0.0473 µM at MMP-2 [5] (tested form: 2HCl), > 10 µM on MMP-14 [6] (tested form: 2HCl), > 10 µM on MMP-1 [7] (tested form: 2HCl) and 0.112 µM at MMP-9 [8] (tested form: 2HCl).

For the compound `COCCN1CCC(C(=O)NO)(S(=O)(=O)N2CCN(c3ccc(OC(F)(F)C(F)F)cc3)CC2)CC1`, the Ki at MMP-2 [5] (tested form: 2HCl) was 0.0001 µM; at MMP-14 [6] (tested form: 2HCl), 1.16 µM; on MMP-1 [7] (tested form: 2HCl), 3.36 µM; on MMP-9 [8] (tested form: 2HCl) it was 0.00044 µM.

Regarding `CCCCc1cnc(N2CCN(S(=O)(=O)C3(C(=O)NO)CCN(CCOC)CC3)CC2)cn1`, the Ki is 0.00246 µM at MMP-2 [5] (tested form: 2HCl), 7.89 µM on MMP-14 [6] (tested form: 2HCl), > 10 µM at MMP-1 [7] (tested form: 2HCl) and 0.00073 µM on MMP-9 [8] (tested form: 2HCl).

In the case of `CCCCOc1ccc(N2CCN(S(=O)(=O)C3(C(=O)NO)CCN(C(=O)N4CCN(CC)C(=O)C4=O)CC3)CC2)cc1`, the Ki at MMP-2 [5] (tested form: 2HCl) was determined as 0.00052 µM; on MMP-14 [6] (tested form: 2HCl) it was 1.79 µM; on MMP-1 [7] (tested form: 2HCl), 8.27 µM; at MMP-9 [8] (tested form: 2HCl), 0.00111 µM.

For `Cc1csc(-c2ccc(C3CCN(S(=O)(=O)C4(C(=O)NO)CCOCC4)CC3)nc2)c1`, the Ki at MMP-2 [1] stood at 0.00048 µM; on MMP-9 [2] it was 0.00659 µM; on MMP-1 [3] it was 1.22 µM; at MMP-13, 0.00015 µM; on MMP-14 [4] it was 0.859 µM.

For `CCCCCCc1ccc(N2CCN(S(=O)(=O)C3(C(=O)NO)CCOCC3)CC2)nc1`, the Ki is 0.000169 µM on MMP-2 [5] (tested form: HCl), 1.43 µM on MMP-14 [6] (tested form: HCl), > 10 µM on MMP-1 [7] (tested form: HCl) and 0.000657 µM on MMP-9 [8] (tested form: HCl).

Consider `C=CCC(CC=C)(C(=O)NO)S(=O)(=O)N1CCC(c2ccc(CCC(F)(F)C(F)(F)F)cn2)CC1`, for which the Ki on MMP-2 [1] was 0.00204 µM; at MMP-9 [2] it was 0.00101 µM; at MMP-1 [3], 8.59 µM; on MMP-13 it was 0.00082 µM; at MMP-14 [4], 6.54 µM.
